Target: recombinant human CHIT1 (Homo sapiens (Human), UniProt Q13231)
Assay: Human CHIT1 activity assay
Format: biochemical

Protein sequences, listed by entry. Tags and fused reporters are not part of them. Residues count along the entry.
UniProt Q13231, 22-466: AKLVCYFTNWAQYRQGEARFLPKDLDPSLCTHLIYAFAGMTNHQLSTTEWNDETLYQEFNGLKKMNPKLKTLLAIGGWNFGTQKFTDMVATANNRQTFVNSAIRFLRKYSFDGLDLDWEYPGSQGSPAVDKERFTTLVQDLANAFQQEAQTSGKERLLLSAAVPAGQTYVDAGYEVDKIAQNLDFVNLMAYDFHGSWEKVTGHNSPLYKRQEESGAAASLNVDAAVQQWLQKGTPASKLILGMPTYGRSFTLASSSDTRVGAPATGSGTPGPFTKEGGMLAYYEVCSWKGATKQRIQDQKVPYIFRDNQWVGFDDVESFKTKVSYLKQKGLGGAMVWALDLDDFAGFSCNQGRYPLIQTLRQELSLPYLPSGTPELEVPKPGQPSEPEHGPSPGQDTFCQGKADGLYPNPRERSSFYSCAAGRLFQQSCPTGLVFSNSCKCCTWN

## CS(=O)(=O)N1C[C@H](Cc2ccc(Cl)cc2)N(C2CCN(c3nnc(N)[nH]3)CC2)C[C@@H]1Cc1ccc(Cl)cc1 [Example 36, 5-(4-((2S,5S)-2,5-bis(4-chlorobenzyl)-4-(methylsulfonyl)piperazin-1-yl)piperidin-1-yl)-4H-1,2,4-triazol-3-amine]
  IC50: 10 to 100 µM

Reference: US10208020B2 (dated 2019)
